This is an account of results in patent US20240101670A1 (Eli Lilly, published 2024).

In this assay the target is T1, soluble, extracellular domain (ECD) of LAIR1 (human, UniProt Q6GTX8 22-163).
T1 construct: Produced recombinantly; also called LAIR1-ECD; LAIR1 ECD protein
T1 chain: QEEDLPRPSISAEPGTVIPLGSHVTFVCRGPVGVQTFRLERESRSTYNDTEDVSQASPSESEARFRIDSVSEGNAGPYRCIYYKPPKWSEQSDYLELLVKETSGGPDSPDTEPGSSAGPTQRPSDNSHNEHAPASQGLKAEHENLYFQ
Briefly: HDX-MS of the complex. The procedure: Hydrogen deuterium exchange coupled with mass spectrometry (HDX-MS) was performed to determine where parental mAb4 binds the ECD of LAIR1.
Peptide identification for LAIR1 ECD was performed on a Waters Synapt G2Si (Waters Corporation) instrument using 3.5 μg of LAIR1 ECD protein at zero exchange (1:10 dilution in 0.1× phosphate buffered saline in H₂O) using nepenthesin II (Nep II) for digestion. The mass spectrometer was set in HDMSe (Mobility ESI+ mode) using a mass acquisition range of m/z 255.00-1950.00 with a scan time of 0.4 s. Data was processed using PLGS 2.3.03 (Waters Corporation). For the exchange experiments, the complex of LAIR1 ECD protein with mAb4 was prepared at the molar ratio of 1:1.2 in 10 mM sodium phosphate buffer, pH 7.4 containing 150 mM NaCl (1×PBS buffer). The experiment was initiated by adding 25 μL of D20 buffer containing 0.1×PBS to 2.5 μl of LAIR1 ECD (0.7 mg/mL) or LAIR1 ECD+mAb4 complex at 15° C. for various amounts of time (0s, 10s, 2 min, 10 min and 60 min) using a custom TECAN sample preparation system (Espada et al. 2019). The reaction was quenched using equal volume of was 0.32M TCEP, 0.1M phosphate pH 2.5 for two minutes at 4° C. and immediately frozen at −70° C. […]

B1: Ab0 (Parental Ab4) (antibody, human IgG1, kappa, V domains shown)
VH: QVQLQESGPGLVKPSETLSLTCTVSGGSISNNYWSWIRQSAGKGLEWIGRMYSSGSTNKNPSLKSRVTMSVDTSKNQFSLKLTSVTAADTAVYYCARGPNWGSPYYGVDVWGQGTTVTVSS
VL: DVVMTQSPLSLPVTPGEPASISCRSSQSLLHSDGYNYLDWYLQKPGQSPQVLIYLGSNRASGVPDRFSGSGSGTDFTLKISRVEAEDVGVYYCMQALQTPFTFGPGTKVEIKR
For the molecule B1, the binding result was “binds”.
